The experiment concerns the target AmpC β-lactamase from E. coli (Escherichia coli, UniProt P00811). The experiment can be described thus: Inhibition of AmpC β-lactamase, spectrophotometric assay (cephalothin substrate). It is filed as biochemical. The following applies: read-out: Ki E. coli AmpC; pH 7.

Chains of the proteins cited; added tags and fusions are not shown. Residues count along the entry.
UniProt P00811, 20-377 limits assumed: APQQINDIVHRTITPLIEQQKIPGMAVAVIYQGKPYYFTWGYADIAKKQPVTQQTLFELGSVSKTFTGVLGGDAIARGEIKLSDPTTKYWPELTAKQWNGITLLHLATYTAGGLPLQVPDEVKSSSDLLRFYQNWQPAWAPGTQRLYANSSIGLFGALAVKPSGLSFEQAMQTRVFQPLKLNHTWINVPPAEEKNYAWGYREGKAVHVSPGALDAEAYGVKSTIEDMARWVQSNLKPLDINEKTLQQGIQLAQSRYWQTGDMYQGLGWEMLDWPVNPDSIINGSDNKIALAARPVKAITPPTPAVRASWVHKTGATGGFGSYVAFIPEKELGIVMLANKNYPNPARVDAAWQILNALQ

The Ki is the dissociation constant of the complex between target and ligand, obtained from inhibition or displacement. Regarding `COc1ccc(B(O)O)cc1`, the Ki is 7.7 µM. For `OB(O)c1ccc(F)cc1` the value was 6.1 µM.
